From PubChem BioAssay AID624296 (National Center for Advancing Translational Sciences (NCATS), 2012) come the findings set out here.

Only a part is listed here, and it is no random draw. Inconclusive results are not listed. Entries that show only a call come without a potency. Active and inactive are the calls of the source. The call rests on the fitted dose curve; in most records, active means well fitted activation curve with a large enough effect; inconclusive means small, poorly fitted or top-dose-only effect; inactive means no such curve, though single readings can be large or run the other way.
Potency means the concentration at half of the fitted maximal effect.

The experiment can be described thus: A quantitative high throughput screen for small molecules that induce DNA re-replication in MCF 10a normal breast cells. Further: nearly all actives have a fitted effect of over 50% in size. As to conditions: MCF 10A DNA re-replication, Hoechst nuclear intensity, 48 h; series mostly up to 46.1 µM.
As for `CP(=S)(Nn1cnnc1)Oc1ccccc1` (stereo unspecified), the Potency result was “inactive”.
Take `CP(=O)(Nc1ccccc1Br)Oc1ccccc1` (stereo unspecified): the Potency result was “inactive”.
Then `COc1ccccc1OP(C)(=O)Nc1ccccc1` (stereo unspecified), with “inactive”; and `CN(C)CCS`, with “inactive”.
Then `O=[N+]([O-])c1cc([N+](=O)[O-])c(O)c([N+](=O)[O-])c1.c1ccc(Oc2ccncc2)cc1`, with “inactive”; and `CCOC(=O)c1ccc(NP(C)(=O)Oc2ccc(OC)cc2)cc1` (stereo unspecified), with “inactive”; and `CCOP(C)(=S)SCC(=O)NC(C)C(=O)O` (stereo unspecified), with “inactive”.
Then `CP(=O)(Nc1ccccn1)Oc1ccc(Cl)cc1` (stereo unspecified), with “inactive”; and `CP(=O)(Oc1ccccc1)OC(c1ccccc1)C(F)(F)F` (stereo unspecified), with “inactive”.
With `Cc1cccc(C)c1OP(C)(=O)Nc1ccc(SC(F)(F)F)cc1` (stereo unspecified), the Potency result was “inactive”.
Consider `Cc1cc(C)cc(OP(C)(=O)Nc2ccc(SC(F)(F)F)cc2)c1` (stereo unspecified), for which the Potency result is “inactive”.
Then `CCc1ccc(OP(C)(=O)N2CCN(c3ccc([N+](=O)[O-])cc3)CC2)cc1` (stereo unspecified), with “inactive”; and `O=[N+]([O-])[O-].[NH4+]`, with “inactive”.
Consider `CCN(CC)CCCOC(=O)C(O)(c1ccccc1)c1ccccc1`, for which the Potency result is “inactive”.
The entry for `Cc1ccc(NP(C)(=O)Oc2ccccc2)c(C)c1` (stereo unspecified) is “inactive”; for `COc1ccccc1OP(C)(=O)Nc1ccc(C)cc1` (stereo unspecified) it is “inactive”; for `CCOC(=O)c1ccc(NP(C)(=O)Oc2ccccc2)cc1` (stereo unspecified) it is “inactive”.
The entry for `Cc1cc(C)cc(OP(C)(N)=O)c1` (stereo unspecified) is “inactive”.
The entry for `COc1ccc(OP(C)(=O)Nc2cccc(F)c2)cc1` (stereo unspecified) is “inactive”; for `COc1ccccc1OP(C)(=O)Nc1cc(Cl)ccc1C` (stereo unspecified) it is “inactive”; for `O=[N+]([O-])c1ccc2c(c1)C=Nc1ccccc1O2` it is active: 23.1 µM.
Take `Cc1cccc(C)c1OP(C)(N)=O` (stereo unspecified): the Potency entry is “inactive”.
For the compound `CC(C)(C)c1ccc(OP(C)(=O)Nc2ccc(SC(F)(F)F)cc2)cc1` (stereo unspecified), the Potency is active: 9.2 µM.
The entry for `O=[N+]([O-])OCC(CO[N+](=O)[O-])(CO[N+](=O)[O-])CO[N+](=O)[O-]` is “inactive”; for `O=[N+]([O-])c1cccc([N+](=O)[O-])c1` it is “inactive”.
As for `Cc1ccc(C)c(NP(C)(=O)Oc2ccccc2)c1` (stereo unspecified), the Potency result is “inactive”.
The entry for `Cc1cc(C)cc(OP(C)(=O)Nc2ccccn2)c1` (stereo unspecified) is “inactive”.
The entry for `CP(=O)(Nc1cccc(Br)c1)Oc1ccccc1` (stereo unspecified) is “inactive”; for `COc1ccccc1OP(C)(=O)Nc1cccc(Br)c1` (stereo unspecified) it is “inactive”; for `Cc1cc(C)cc(OP(C)(=O)Nc2ccc(C)cc2C)c1` (stereo unspecified) it is “inactive”.
The entry for `Cc1nc2ccc3ccccc3c2s1.O=[N+]([O-])c1cc([N+](=O)[O-])c(O)c([N+](=O)[O-])c1` is “inactive”; for `O=[N+]([O-])c1cc([N+](=O)[O-])c(-n2nnc3ccccc32)c([N+](=O)[O-])c1` it is “inactive”.
As for `CN1CCCCC1COC(=O)C1(O)c2ccccc2CCc2ccccc21` (stereo unspecified), the Potency result was “inactive”.
Then `COc1ccccc1OP(C)(=O)Nc1c(C)cccc1C` (stereo unspecified), with “inactive”.
Regarding `CCCOc1ccc(NP(C)(=O)Oc2ccc(Cl)cc2)cc1` (stereo unspecified), the Potency entry was “inactive”.
Regarding `CP(=O)(Nc1ccc(SC(F)(F)F)cc1)Oc1ccccc1` (stereo unspecified), the Potency result was “inactive”.
Regarding `CC1=C2N=C(C=C3N=C(C(C)=C4[N-][C@@](C)([C@@H]5N=C1[C@](C)(CCC(=O)NC[C@@H](C)OP(=O)([O-])O[C@H]1[C@@H](O)[C@@H](n6cnc7cc(C)c(C)cc76)O[C@@H]1CO)[C@H]5CC(N)=O)[C@@](C)(CC(N)=O)[C@@H]4CCC(N)=O)[C@@](C)(CC(N)=O)[C@@H]3CCC(N)=O)C(C)(C)[C@@H]2CCC(N)=O.[C-]#N.[Co+3]`, the Potency result was “inactive”.
For `O=[N+]([O-])c1cc([N+](=O)[O-])c(Nc2nnnn2CCO)c([N+](=O)[O-])c1`, the Potency result was “inactive”.
Then `Cc1cc(-c2cccc3ccccc23)c(C)cn1.O=[N+]([O-])c1cc([N+](=O)[O-])c(O)c([N+](=O)[O-])c1`, with “inactive”; and `Cc1c(C(c2ccc3c(c2)OCO3)c2c(C)n(C)n(-c3ccccc3)c2=O)c(=O)n(-c2ccccc2)n1C.O=[N+]([O-])c1cc([N+](=O)[O-])c(O)c([N+](=O)[O-])c1`, with “inactive”.
The entry for `COc1ccc(OP(C)(=O)Nc2cccc(Br)c2)cc1` (stereo unspecified) is “inactive”; for `CN(C)CCOC(=O)C(O)(c1ccccc1)C1CCCCC1` (stereo unspecified) it is “inactive”; for `CP(=O)(Nc1ccc2c(c1)OCCO2)Oc1ccccc1` (stereo unspecified) it is “inactive”.
Regarding `Cc1ccccc1NP(C)(=O)Nc1ccccc1C`, the Potency entry was “inactive”.
In the case of `CP(=O)(Nc1ccc(SC(F)(F)F)cc1)Oc1ccc(F)cc1` (stereo unspecified), the Potency entry was “inactive”.
Take `CCOP(C)(=S)SCC(=O)NC(C)(CC)C(=O)O` (stereo unspecified): the Potency entry is “inactive”.
On to `O=C(OCCN1CCN(CCOCc2ccccc2)CC1)C(O)(c1ccccc1)c1ccccc1`, for which the Potency entry was “inactive”.
Then `CC(C)c1ccc(OP(C)(=O)Nc2ccc(SC(F)(F)F)cc2)cc1` (stereo unspecified), with active: 20.6 µM.
The entry for `Cc1c([N+](=O)[O-])cc([N+](=O)[O-])c(Br)c1[N+](=O)[O-]` is “inactive”.
Then `CCN(CC)CCCOC(=O)C(O)(c1ccccc1)C1CCCCC1` (stereo unspecified), with “inactive”; and `CP(=O)(Nc1ccccc1)Oc1ccc(F)cc1` (stereo unspecified), with active: 14.6 µM.
Consider `CCOC(=O)c1ccc(NP(C)(=O)Oc2ccc(F)cc2)cc1` (stereo unspecified), for which the Potency entry is “inactive”.
On to `COc1ccc(OP(C)(=O)Nc2ccc(SC(F)(F)F)cc2)cc1` (stereo unspecified), for which the Potency result is “inactive”.
The entry for `Cc1cc(C)cc(OP(C)(=O)Nc2cccc(C(F)(F)F)c2)c1` (stereo unspecified) is “inactive”; for `COc1ccccc1OP(C)(=O)Nc1ccc(C)c(C)c1` (stereo unspecified) it is “inactive”; for `COc1ccc(OP(C)(=O)Nc2ccccc2Br)cc1` (stereo unspecified) it is “inactive”.
In the case of `Cc1c(NP(C)(=O)Oc2ccc(C(C)C)cc2)c(=O)n(-c2ccccc2)n1C` (stereo unspecified), the Potency entry is “inactive”.
Consider `COc1ccccc1OP(C)(=O)Nc1ccc(C)cc1C` (stereo unspecified), for which the Potency entry was “inactive”.
Consider `CP(=O)(Nc1ccccn1)Oc1ccccc1` (stereo unspecified), for which the Potency result was “inactive”.
For `CCc1ccc(OP(C)(=O)O)cc1`, the Potency result was “inactive”.
With `COc1ccccc1OP(C)(=O)Nc1ccc(Br)cc1` (stereo unspecified), the Potency entry was “inactive”.
The entry for `COc1ccc(OP(C)(=O)Nc2ccccn2)cc1` (stereo unspecified) is “inactive”.
Then `CN(C)CCOC(=O)C(O)(c1ccccc1)C1CCCC1` (stereo unspecified), with “inactive”.
As for `COc1ccccc1OP(C)(=O)Nc1ccccc1Br` (stereo unspecified), the Potency entry is “inactive”.
Consider `CC(C)(C)c1ccc(OP(C)(=O)O)cc1`, for which the Potency entry was “inactive”.
The entry for `COc1ccc(OP(C)(=O)Nc2ccc(Br)cc2)cc1` (stereo unspecified) is “inactive”.
The entry for `CCN(CC)CC(O)COC(=O)C(O)(c1ccccc1)C1CCCCC1` (stereo unspecified) is “inactive”.
In the case of `N#[O+].[C-]#N.[C-]#N.[C-]#N.[C-]#N.[C-]#N.[Fe+2].[Na+].[Na+]`, the Potency result was “inactive”.
As for `OCCSCCO`, the Potency result was “inactive”.
For the compound `COc1ccccc1OP(C)(=O)Nc1c(C)n(C)n(-c2ccccc2)c1=O` (stereo unspecified), the Potency result is “inactive”.
`CCc1ccc(OP(C)(=O)Nc2cccnc2)cc1` (stereo unspecified): the Potency entry is “inactive”.
Consider `CP(=O)(Oc1ccccc1)N1CCOC1=O` (stereo unspecified), for which the Potency result is “inactive”.
The entry for `CC(C)OP(=O)(F)OC(C)C` is “inactive”; for `C/C1=C2N=C(/C=C3N=C(/C(C)=C4\[N-][C@@](C)([C@H]5N=C1[C@@](C)(CCC(=O)NC[C@H](C)OP(=O)([O-])O[C@@H]1[C@H](O)[C@H](n6cnc7cc(C)c(C)cc76)O[C@@H]1CO)[C@@H]5CC(N)=O)[C@](C)(CC(N)=O)[C@H]4CCC(N)=O)[C@@](C)(CC(N)=O)[C@@H]\3CCC(N)=O)C(C)(C)[C@@H]/2CCC(N)=O.[C-]#N.[Co+3]` it is “inactive”; for `Nc1ccc2c(ccc3cccnc32)n1.O=[N+]([O-])c1cc([N+](=O)[O-])c(O)c([N+](=O)[O-])c1` it is “inactive”.
The entry for `CCOC(=O)c1ccc(NP(C)(=O)Oc2ccc(Cl)cc2)cc1` (stereo unspecified) is “inactive”.
